Measured values taken from PubChem BioAssay AID2520 (Sanford-Burnham Center for Chemical Genomics, 2010).
The entries are a selection whose mix differs from that of the whole data set. Some salts or complexes appear as unconnected parts, following the source record. Activity calls are given as the source filed them.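 The calls were made as follows: active = activation more than six SD over the plate average, tested at 20 µM; inactive = the rest.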

The chains behind the UniProt entries cited, without tags or fusion partners.
UniProt P35414, whole entry: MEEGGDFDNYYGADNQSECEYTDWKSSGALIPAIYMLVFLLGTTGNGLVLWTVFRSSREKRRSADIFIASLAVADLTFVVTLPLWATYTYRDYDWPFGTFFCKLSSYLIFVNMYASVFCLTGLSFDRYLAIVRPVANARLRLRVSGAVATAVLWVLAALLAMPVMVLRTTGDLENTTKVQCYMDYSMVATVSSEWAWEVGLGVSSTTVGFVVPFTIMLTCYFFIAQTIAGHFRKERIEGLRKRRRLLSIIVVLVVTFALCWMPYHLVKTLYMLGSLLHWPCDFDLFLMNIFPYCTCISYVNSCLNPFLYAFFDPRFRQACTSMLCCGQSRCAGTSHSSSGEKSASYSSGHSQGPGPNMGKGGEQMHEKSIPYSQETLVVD

Target: Apelin receptor (Homo sapiens) (UniProt P35414)
Experiment: agonists of human apelin receptor APJ, primary screen, CHO-K1 cells, PathHunter beta-arrestin, luminescence (AID 2520)
Settings: at 20 µM, active compounds read high, 0% DMSO wells, 100% apelin
Procedure, shortened: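 Material: engineered CHO-K1 APJ arrestin reporter cells; amount: 1000 CHO-K1 reporter cells seeded per well; incubation: compound stimulation 90 min at 25 °C, detection 60 min; signal: luminescent beta-gal fragment complementation, chemiluminescent substrate; read-out basis: APJ agonist activity; controls: DMSO-only wells as negative, 10 nM Apelin-13 as positive control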

| SMILES | activation |
| --- | --- |
| Nc1ccc2c(ccc3cccnc32)n1.O=[N+]([O-])c1cc([N+](=O)[O-])c(O)c([N+](=O)[O-])c1 | inactive: -4.16% |
| CCOC(=O)c1ccc(NP(C)(=O)Oc2ccc(Cl)cc2)cc1 (configuration not stated) | inactive: 2.51% |
| CP(=O)(OC12CC3CC(CC(C3)C1)C2)OC12CC3CC(CC(C3)C1)C2 | inactive: -4.04% |
| CC(C)(C)c1ccc(OP(C)(=O)O)cc1 | inactive: -0.739% |
| COc1ccccc1OP(C)(=O)Nc1ccccc1Br (configuration not stated) | inactive: -1.19% |
| CP(=O)(Nc1ccc(Cl)cc1)Oc1ccc(F)cc1 (configuration not stated) | inactive: -4.79% |
| CN(C)C(=O)c1c([N+](=O)[O-])cc([N+](=O)[O-])cc1[N+](=O)[O-] | inactive: 1.88% |
| COc1ccc(OP(C)(=O)Nc2ccc(Br)cc2)cc1 (configuration not stated) | inactive: 0.738% |
| CCN(CC)CC(O)COC(=O)C(O)(c1ccccc1)C1CCCCC1 (configuration not stated) | inactive: 0.565% |
| O=C(OCCCN1CCCC1)C(O)(c1ccccc1)C1CCCCC1 (configuration not stated) | inactive: -1.12% |
| COc1ccccc1OP(C)(=O)Nc1c(C)n(C)n(-c2ccccc2)c1=O (configuration not stated) | inactive: 2.45% |
| CCc1ccc(OP(C)(=O)Nc2cccnc2)cc1 (configuration not stated) | inactive: -0.729% |
| CP(=O)(Oc1ccccc1)N1CCOC1=O (configuration not stated) | inactive: -3.59% |
| O=[N+]([O-])c1cc([N+](=O)[O-])c(Nc2ccccn2)c([N+](=O)[O-])c1 | inactive: -2.24% |
| Cc1c(NP(C)(=O)Oc2ccc(C(C)C)cc2)c(=O)n(-c2ccccc2)n1C (configuration not stated) | inactive: -3.43% |
| COc1ccccc1OP(C)(=O)Nc1ccc(C)cc1C (configuration not stated) | inactive: 0.288% |
| CP(=O)(Nc1ccccn1)Oc1ccccc1 (configuration not stated) | inactive: -2.93% |
| CCc1ccc(OP(C)(=O)O)cc1 | inactive: -2.26% |
| COc1ccccc1OP(C)(=O)Nc1ccc(Br)cc1 (configuration not stated) | inactive: -0.681% |
| COc1ccc(OP(C)(=O)Nc2ccccn2)cc1 (configuration not stated) | inactive: -2.12% |
| CN(C)CCOC(=O)C(O)(c1ccccc1)C1CCCC1 (configuration not stated) | inactive: -2.17% |
| Cc1nc2ccc3ccccc3c2o1.O=[N+]([O-])c1cc([N+](=O)[O-])c(O)c([N+](=O)[O-])c1 | inactive: 1.97% |

| SMILES | activation |
| --- | --- |
| CP(=O)(OCCOc1ccccc1)OCCOc1ccccc1 | inactive: -4.01% |
| CP(=O)(Nc1ccc(Cl)cc1Cl)Oc1ccccc1 (configuration not stated) | inactive: -0.904% |
| Cc1cc(C)cc(OP(C)(=O)Nc2cccc(C(F)(F)F)c2)c1 (configuration not stated) | inactive: -1.3% |
| COc1ccccc1OP(C)(=O)Nc1ccc(C)c(C)c1 (configuration not stated) | inactive: -0.686% |
| COc1ccc(OP(C)(=O)Nc2ccccc2Br)cc1 (configuration not stated) | inactive: -3.69% |
| CCN(CC)CCCOC(=O)C(O)(c1ccccc1)C1CCCCC1 (configuration not stated) | inactive: -2.43% |
| CP(=O)(Nc1ccccc1)Oc1ccc(F)cc1 (configuration not stated) | inactive: -0.0698% |
| O=[N+]([O-])c1cc([N+](=O)[O-])c(OC2CCCCC2O)c([N+](=O)[O-])c1 (configuration not stated) | inactive: -0.0306% |
| CCCCCOc1ccc(NP(C)(=O)Oc2ccc(Cl)cc2Cl)cc1 (configuration not stated) | inactive: -2.33% |
| CCOC(=O)c1ccc(NP(C)(=O)Oc2ccc(F)cc2)cc1 (configuration not stated) | inactive: -3.73% |
| COc1ccc(OP(C)(=O)Nc2ccc(SC(F)(F)F)cc2)cc1 (configuration not stated) | inactive: -3.55% |
| O=C(OC1CN2CCC1CC2)c1ccc([N+](=O)[O-])cc1 (configuration not stated) | inactive: -0.429% |
| O=C(OCCN1CCN(CCOCc2ccccc2)CC1)C(O)(c1ccccc1)c1ccccc1 | inactive: -0.93% |
| COc1ccc2c(c1O)-c1c(O)c(OC)cc3c1[C@H](C2)[N+](C)(C)CC3.O=[N+]([O-])c1cc([N+](=O)[O-])c([O-])c([N+](=O)[O-])c1[O-] | inactive: 2.49% |
| CP(=O)(Nc1ccccc1F)Oc1ccccc1 (configuration not stated) | inactive: -3.23% |
| CC(C)c1ccc(OP(C)(=O)Nc2ccc(SC(F)(F)F)cc2)cc1 (configuration not stated) | inactive: -0.814% |
| CP(=O)(Nc1ccc2c(c1)OCCO2)Oc1ccccc1 (configuration not stated) | inactive: 0.12% |
| Cc1ccccc1NP(C)(=O)Nc1ccccc1C | inactive: 3.17% |
| CP(=O)(Nc1ccc(SC(F)(F)F)cc1)Oc1ccc(F)cc1 (configuration not stated) | inactive: 0.955% |
| CCOP(C)(=S)SCC(=O)NC(C)(CC)C(=O)O (configuration not stated) | inactive: 5.79% |
| O=[N+]([O-])c1cc([N+](=O)[O-])c(NCC2CCS(=O)(=O)C2)c([N+](=O)[O-])c1 (configuration not stated) | inactive: 5.68% |
| COc1ccc(OP(C)(=O)Nc2cccc(Br)c2)cc1 (configuration not stated) | inactive: -7.08% |

| SMILES | activation |
| --- | --- |
| CN(C)CCOC(=O)C(O)(c1ccccc1)C1CCCCC1 (configuration not stated) | inactive: -1.67% |
| COc1ccc(NP(C)(=O)Oc2ccccc2OC)cc1 (configuration not stated) | inactive: -1.23% |
| COc1ccccc1OP(C)(=O)Nc1c(C)cccc1C (configuration not stated) | inactive: -1.24% |
| CN1CCCCC1COC(=O)C1(O)c2ccccc2CCc2ccccc21 (configuration not stated) | inactive: -4.17% |
| CP(=O)(Nc1ccc(SC(F)(F)F)cc1)Oc1ccccc1 (configuration not stated) | inactive: -0.62% |
| CCCOc1ccc(NP(C)(=O)Oc2ccc(Cl)cc2)cc1 (configuration not stated) | inactive: -2.43% |
| CCOC(=O)C(CC)C1=NC(C)(C)Cc2ccccc21.O=[N+]([O-])c1cc([N+](=O)[O-])c(O)c([N+](=O)[O-])c1 (configuration not stated) | inactive: 0.302% |
| O=[N+]([O-])c1cc([N+](=O)[O-])c(Nc2nnnn2CCO)c([N+](=O)[O-])c1 | inactive: -9.62% |
| CC1=C2N=C(C=C3N=C(C(C)=C4[N-][C@@](C)([C@@H]5N=C1[C@](C)(CCC(=O)NC[C@@H](C)OP(=O)([O-])O[C@H]1[C@@H](O)[C@@H](n6cnc7cc(C)c(C)cc76)O[C@@H]1CO)[C@H]5CC(N)=O)[C@@](C)(CC(N)=O)[C@@H]4CCC(N)=O)[C@@](C)(CC(N)=O)[C@@H]3CCC(N)=O)C(C)(C)[C@@H]2CCC(N)=O.[C-]#N.[Co+3] | inactive: -10.8% |
| O=[N+]([O-])c1cc([N+](=O)[O-])c(-c2cnn(-c3ccccc3)c2)c([N+](=O)[O-])c1 | active: 20.6% |
| Cc1nc2ccc3ccccc3c2s1.O=[N+]([O-])c1cc([N+](=O)[O-])c(O)c([N+](=O)[O-])c1 | inactive: -9.46% |
| O=[N+]([O-])c1cc([N+](=O)[O-])c(-n2nnc3ccccc32)c([N+](=O)[O-])c1 | inactive: 0.624% |
| Cc1ccc(C)c(NP(C)(=O)Oc2ccccc2)c1 (configuration not stated) | inactive: -0.101% |
| CP(=O)(Nc1cccc(Br)c1)Oc1ccccc1 (configuration not stated) | inactive: -2.56% |
| Cc1cc(C)cc(OP(C)(=O)Nc2ccccn2)c1 (configuration not stated) | inactive: -2.14% |
| COc1ccccc1OP(C)(=O)Nc1cccc(Br)c1 (configuration not stated) | inactive: -3.33% |
| CCOC(=O)c1ccc(NP(C)(=O)Oc2cc(C)cc(C)c2)cc1 (configuration not stated) | inactive: -0.0284% |
| Cc1cc(C)cc(OP(C)(=O)Nc2ccc(C)cc2C)c1 (configuration not stated) | inactive: 0.596% |
| CC1=NCCc2c1[nH]c1ccccc21.O=[N+]([O-])c1cc([N+](=O)[O-])c(O)c([N+](=O)[O-])c1 | inactive: 0.352% |
| O=C(O)c1cccc(Nc2c([N+](=O)[O-])cc([N+](=O)[O-])cc2[N+](=O)[O-])c1 | inactive: -5.71% |
| Cc1ccc(NP(C)(=O)Oc2ccccc2)c(C)c1 (configuration not stated) | inactive: 0.758% |
| COc1ccccc1OP(C)(=O)Nc1ccc(C)cc1 (configuration not stated) | inactive: -1.76% |

| SMILES | activation |
| --- | --- |
| CCOC(=O)c1ccc(NP(C)(=O)Oc2ccccc2)cc1 (configuration not stated) | inactive: -0.0372% |
| Cc1cc(C)cc(OP(C)(N)=O)c1 (configuration not stated) | inactive: -2.22% |
| COc1ccc(OP(C)(=O)Nc2cccc(F)c2)cc1 (configuration not stated) | inactive: 2.4% |
| COc1ccccc1OP(C)(=O)Nc1cc(Cl)ccc1C (configuration not stated) | inactive: -3.06% |
| O=[N+]([O-])c1cc([N+](=O)[O-])c(Nc2cccnc2)c([N+](=O)[O-])c1 | inactive: -2.46% |
| Cc1cccc(C)c1OP(C)(N)=O (configuration not stated) | inactive: -2.56% |
| CC(C)(C)c1ccc(OP(C)(=O)Nc2ccc(SC(F)(F)F)cc2)cc1 (configuration not stated) | inactive: -2.24% |
| CCN(CC)CCCOC(=O)C(O)(c1ccccc1)c1ccccc1 | inactive: -4% |
| CCOC(=O)c1ccc(NP(C)(=O)Oc2ccc(OC)cc2)cc1 (configuration not stated) | inactive: -0.297% |
| O=[N+]([O-])c1cc([N+](=O)[O-])c(O)c([N+](=O)[O-])c1.c1ccc(Oc2ccncc2)cc1 | inactive: -7.49% |
| CCOP(C)(=S)SCC(=O)NC(C)C(=O)O (configuration not stated) | inactive: 3.5% |
| CP(=O)(Nc1ccccn1)Oc1ccc(Cl)cc1 (configuration not stated) | inactive: 0.82% |
| CP(=O)(Oc1ccccc1)OC(c1ccccc1)C(F)(F)F (configuration not stated) | inactive: -2.27% |
| Cc1cccc(C)c1OP(C)(=O)Nc1ccc(SC(F)(F)F)cc1 (configuration not stated) | inactive: -0.326% |
| CP(=O)(Nc1ccc(SC(F)(F)F)cc1)Oc1ccc(Cl)cc1 (configuration not stated) | inactive: -5.39% |
| Cc1cc(C)cc(OP(C)(=O)Nc2ccc(SC(F)(F)F)cc2)c1 (configuration not stated) | inactive: 0.558% |
| CCc1ccc(OP(C)(=O)N2CCN(c3ccc([N+](=O)[O-])cc3)CC2)cc1 (configuration not stated) | inactive: 3.31% |
| CP(=O)(NC(=O)Nc1ccccc1)Oc1ccccc1 (configuration not stated) | inactive: -4.74% |
| CP(=S)(Nn1cnnc1)Oc1ccccc1 (configuration not stated) | inactive: 4.37% |
| CP(=O)(Nc1ccccc1Br)Oc1ccccc1 (configuration not stated) | inactive: -0.812% |
| COc1ccccc1OP(C)(=O)Nc1ccccc1 (configuration not stated) | inactive: -4.11% |
